PubChem BioAssay AID1347404 (Pan Lab, Icahn School of Medicine at Mount Sinai, 2020)
This is a selection; strong and weak results do not stand in their true shares. Activity calls are given as the source filed them. No stated cut-off is given here; in the data, active means inhibition above about 25%; inactive means the rest.

Protein sequences, listed by entry. Tags and fused reporters are not part of them.
UniProt P62877, whole entry, looked up: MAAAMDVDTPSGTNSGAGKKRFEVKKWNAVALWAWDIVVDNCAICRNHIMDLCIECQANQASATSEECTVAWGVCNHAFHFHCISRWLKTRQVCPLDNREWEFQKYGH
UniProt Q13616, whole entry, looked up: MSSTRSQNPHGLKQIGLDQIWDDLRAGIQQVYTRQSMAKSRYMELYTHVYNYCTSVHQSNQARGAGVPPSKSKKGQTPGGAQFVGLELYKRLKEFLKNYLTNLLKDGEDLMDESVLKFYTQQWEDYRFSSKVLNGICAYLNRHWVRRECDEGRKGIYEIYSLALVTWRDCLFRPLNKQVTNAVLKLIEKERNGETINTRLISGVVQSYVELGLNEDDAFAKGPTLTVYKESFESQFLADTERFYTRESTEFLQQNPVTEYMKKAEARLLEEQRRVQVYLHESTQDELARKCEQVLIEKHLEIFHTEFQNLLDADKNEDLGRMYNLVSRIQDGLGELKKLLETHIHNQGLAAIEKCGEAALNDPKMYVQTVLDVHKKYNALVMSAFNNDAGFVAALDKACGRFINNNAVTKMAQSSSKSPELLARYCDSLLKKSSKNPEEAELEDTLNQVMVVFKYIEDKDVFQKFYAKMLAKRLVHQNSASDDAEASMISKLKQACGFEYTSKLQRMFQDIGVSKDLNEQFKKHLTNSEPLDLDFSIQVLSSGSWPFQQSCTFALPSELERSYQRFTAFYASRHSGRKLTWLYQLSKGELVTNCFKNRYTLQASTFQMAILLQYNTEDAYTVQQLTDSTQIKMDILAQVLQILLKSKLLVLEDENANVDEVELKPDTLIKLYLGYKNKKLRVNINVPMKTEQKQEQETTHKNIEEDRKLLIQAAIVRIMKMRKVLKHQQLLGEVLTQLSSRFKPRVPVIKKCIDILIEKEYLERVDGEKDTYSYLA

target: E3 ubiquitin-protein ligase RBX1 (Homo sapiens) + Cullin-1 (Homo sapiens) (UniProt P62877+Q13616); experiment: blocks human RBX1-Cullin-1 di-ubiquitin formation (AID 1347404); conditions: in vitro K48 di-Ub FRET, acceptor:donor ratio, 45 min; at 10 µM; stronger effect = higher value

SMILES	inhibition
COc1cc(C(=O)NCC2(N3CCOCC3)CCCCC2)cc(OC)c1OC	inactive: 4.93%
Cc1ccccc1C(=O)NCC1(N(C)C)CCCCC1	inactive: 3.71%
CC(C)(C)c1ccc(C(=O)NCC2(N3CCOCC3)CCCCC2)cc1	inactive: 1.8%
CN(C)C1(CNC(=O)c2ccc(C(C)(C)C)cc2)CCCCC1	inactive: -3.72%
O=C(NCC1(N2CCOCC2)CCCCC1)c1ccccc1	inactive: -7.51%
O=C(NCC1(N2CCOCC2)CCCCC1)c1ccccc1[N+](=O)[O-]	inactive: 1.85%
O=C(NCC1(N2CCOCC2)CCCCC1)c1ccc([N+](=O)[O-])cc1	inactive: -8.57%
O=C(OC1CN2CCC1CC2)C1c2ccccc2C=Cc2ccccc21 (configuration not stated)	inactive: -7.3%
NC(=O)C1(Nc2ccccc2)CCN(Cc2ccccc2)CC1	inactive: -0.72%
CCCCOc1ccccc1C(=O)NCC1(N2CCOCC2)CCCCC1	inactive: -5.04%
O=C(NCC1(N2CCOCC2)CCCCC1)c1ccccc1Br	inactive: -9.57%
CCCOc1cccc(C(=O)NCC2(N3CCOCC3)CCCCC2)c1	inactive: -3.36%
CN1CCC(Nc2ccccc2)CC1	inactive: 3.34%
CCOc1ccc(C(=O)NCC2(N3CCOCC3)CCCCC2)cc1	inactive: -10.2%
O=C(NCC1(N2CCOCC2)CCCCC1)c1ccc(Cl)cc1	inactive: -4.36%
COc1ccccc1C(=O)NCC1(N2CCOCC2)CCCCC1	inactive: -5.29%
N#CC1(Nc2ccccc2)CCN(Cc2ccccc2)CC1	inactive: -5.79%
